Data on 34 compounds can be found in ChEMBL document CHEMBL1201862, “PubChem BioAssay data set” (2004).

Protein sequences, listed by entry. Tags and fused reporters are not part of them. Lines headed by an entry give the natural chain unless they say otherwise; changes in a name come on top.
UniProt P84022, whole entry, looked up: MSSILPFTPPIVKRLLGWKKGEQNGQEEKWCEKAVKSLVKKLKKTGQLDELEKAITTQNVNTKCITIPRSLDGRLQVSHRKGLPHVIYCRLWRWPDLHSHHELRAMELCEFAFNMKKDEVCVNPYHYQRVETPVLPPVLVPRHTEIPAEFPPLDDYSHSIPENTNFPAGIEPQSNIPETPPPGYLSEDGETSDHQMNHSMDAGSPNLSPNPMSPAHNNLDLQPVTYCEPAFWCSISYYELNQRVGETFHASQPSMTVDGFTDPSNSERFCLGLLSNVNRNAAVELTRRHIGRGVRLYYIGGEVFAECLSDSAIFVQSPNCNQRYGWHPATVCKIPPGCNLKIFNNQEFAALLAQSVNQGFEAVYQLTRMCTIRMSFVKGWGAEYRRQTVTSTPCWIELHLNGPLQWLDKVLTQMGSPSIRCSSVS
UniProt Q16236, whole entry, looked up: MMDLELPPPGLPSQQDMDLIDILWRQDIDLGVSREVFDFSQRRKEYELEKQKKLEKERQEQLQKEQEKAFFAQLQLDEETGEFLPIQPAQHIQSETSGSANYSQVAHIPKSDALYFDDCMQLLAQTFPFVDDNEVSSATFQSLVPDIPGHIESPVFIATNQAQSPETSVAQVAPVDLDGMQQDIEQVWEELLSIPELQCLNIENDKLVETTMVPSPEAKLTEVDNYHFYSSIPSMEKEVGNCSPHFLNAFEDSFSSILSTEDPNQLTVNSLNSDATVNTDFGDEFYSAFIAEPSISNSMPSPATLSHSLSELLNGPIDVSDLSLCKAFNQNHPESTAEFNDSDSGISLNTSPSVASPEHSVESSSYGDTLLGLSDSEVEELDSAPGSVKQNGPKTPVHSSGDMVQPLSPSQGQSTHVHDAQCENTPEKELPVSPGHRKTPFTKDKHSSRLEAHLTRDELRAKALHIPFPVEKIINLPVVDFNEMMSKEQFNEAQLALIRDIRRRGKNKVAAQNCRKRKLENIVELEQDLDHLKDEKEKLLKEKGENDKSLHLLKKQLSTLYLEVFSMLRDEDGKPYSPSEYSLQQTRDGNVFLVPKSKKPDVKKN
UniProt Q9NUW8, whole entry, looked up: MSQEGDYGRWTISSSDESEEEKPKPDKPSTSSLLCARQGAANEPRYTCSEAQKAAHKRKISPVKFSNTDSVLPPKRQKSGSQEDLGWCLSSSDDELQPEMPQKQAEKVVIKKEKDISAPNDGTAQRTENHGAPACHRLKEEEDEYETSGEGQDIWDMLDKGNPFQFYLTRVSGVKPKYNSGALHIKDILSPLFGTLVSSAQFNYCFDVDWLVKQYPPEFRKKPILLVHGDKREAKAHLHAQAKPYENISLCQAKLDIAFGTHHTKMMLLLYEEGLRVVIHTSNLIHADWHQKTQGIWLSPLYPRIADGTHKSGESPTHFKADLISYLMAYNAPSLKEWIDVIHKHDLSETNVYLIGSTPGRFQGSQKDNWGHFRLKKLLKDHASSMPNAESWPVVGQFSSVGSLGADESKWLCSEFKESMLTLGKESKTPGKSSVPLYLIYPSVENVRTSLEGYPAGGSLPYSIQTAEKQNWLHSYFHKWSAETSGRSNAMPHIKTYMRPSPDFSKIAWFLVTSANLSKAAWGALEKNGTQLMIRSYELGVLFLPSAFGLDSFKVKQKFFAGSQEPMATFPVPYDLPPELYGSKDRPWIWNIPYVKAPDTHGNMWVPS
UniProt Q13148, whole entry, looked up: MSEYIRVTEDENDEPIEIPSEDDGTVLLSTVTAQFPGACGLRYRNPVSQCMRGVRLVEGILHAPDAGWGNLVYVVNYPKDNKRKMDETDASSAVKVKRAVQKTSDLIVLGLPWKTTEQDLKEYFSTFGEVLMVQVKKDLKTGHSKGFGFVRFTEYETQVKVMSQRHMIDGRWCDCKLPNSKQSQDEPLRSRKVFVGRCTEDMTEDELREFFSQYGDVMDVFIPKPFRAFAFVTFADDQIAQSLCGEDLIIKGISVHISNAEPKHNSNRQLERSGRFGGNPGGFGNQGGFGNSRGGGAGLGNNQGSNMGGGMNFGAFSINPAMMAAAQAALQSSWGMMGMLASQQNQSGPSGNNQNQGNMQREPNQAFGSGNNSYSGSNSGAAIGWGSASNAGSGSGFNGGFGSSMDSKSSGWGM
UniProt P80244: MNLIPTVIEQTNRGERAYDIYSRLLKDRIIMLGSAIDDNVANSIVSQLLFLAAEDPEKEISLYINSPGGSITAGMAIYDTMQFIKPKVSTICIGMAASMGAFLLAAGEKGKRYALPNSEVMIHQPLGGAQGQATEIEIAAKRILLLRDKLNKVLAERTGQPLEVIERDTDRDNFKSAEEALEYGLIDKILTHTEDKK
UniProt Q9HCT0: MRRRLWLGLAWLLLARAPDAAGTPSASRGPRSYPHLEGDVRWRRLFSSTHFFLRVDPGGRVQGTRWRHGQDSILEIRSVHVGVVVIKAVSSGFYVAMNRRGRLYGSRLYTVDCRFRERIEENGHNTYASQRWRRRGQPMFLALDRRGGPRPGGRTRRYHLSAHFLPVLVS
UniProt O95398: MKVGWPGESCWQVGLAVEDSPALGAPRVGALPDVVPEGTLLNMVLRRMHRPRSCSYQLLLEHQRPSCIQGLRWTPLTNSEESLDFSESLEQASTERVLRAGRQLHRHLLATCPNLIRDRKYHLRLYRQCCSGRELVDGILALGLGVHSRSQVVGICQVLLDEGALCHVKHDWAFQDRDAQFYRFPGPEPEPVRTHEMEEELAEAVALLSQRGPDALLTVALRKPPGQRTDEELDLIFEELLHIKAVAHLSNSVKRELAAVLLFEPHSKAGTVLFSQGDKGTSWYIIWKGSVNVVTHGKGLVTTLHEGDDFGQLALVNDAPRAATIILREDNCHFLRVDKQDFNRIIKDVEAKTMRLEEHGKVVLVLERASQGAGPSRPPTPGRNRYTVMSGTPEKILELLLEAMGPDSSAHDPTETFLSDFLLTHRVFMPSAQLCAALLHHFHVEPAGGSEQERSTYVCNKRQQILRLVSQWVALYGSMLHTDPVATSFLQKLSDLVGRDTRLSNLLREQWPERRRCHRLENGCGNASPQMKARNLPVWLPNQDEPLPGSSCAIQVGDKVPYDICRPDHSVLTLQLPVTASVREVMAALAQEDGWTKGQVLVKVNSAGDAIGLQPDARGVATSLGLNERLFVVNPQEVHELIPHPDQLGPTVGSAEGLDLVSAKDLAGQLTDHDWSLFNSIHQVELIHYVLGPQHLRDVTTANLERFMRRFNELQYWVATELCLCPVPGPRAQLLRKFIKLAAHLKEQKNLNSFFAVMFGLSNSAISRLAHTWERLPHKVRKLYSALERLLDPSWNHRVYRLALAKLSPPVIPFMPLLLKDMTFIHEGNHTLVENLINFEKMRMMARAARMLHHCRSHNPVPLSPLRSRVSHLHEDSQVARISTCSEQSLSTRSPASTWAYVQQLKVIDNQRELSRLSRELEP
UniProt Q8WZA2: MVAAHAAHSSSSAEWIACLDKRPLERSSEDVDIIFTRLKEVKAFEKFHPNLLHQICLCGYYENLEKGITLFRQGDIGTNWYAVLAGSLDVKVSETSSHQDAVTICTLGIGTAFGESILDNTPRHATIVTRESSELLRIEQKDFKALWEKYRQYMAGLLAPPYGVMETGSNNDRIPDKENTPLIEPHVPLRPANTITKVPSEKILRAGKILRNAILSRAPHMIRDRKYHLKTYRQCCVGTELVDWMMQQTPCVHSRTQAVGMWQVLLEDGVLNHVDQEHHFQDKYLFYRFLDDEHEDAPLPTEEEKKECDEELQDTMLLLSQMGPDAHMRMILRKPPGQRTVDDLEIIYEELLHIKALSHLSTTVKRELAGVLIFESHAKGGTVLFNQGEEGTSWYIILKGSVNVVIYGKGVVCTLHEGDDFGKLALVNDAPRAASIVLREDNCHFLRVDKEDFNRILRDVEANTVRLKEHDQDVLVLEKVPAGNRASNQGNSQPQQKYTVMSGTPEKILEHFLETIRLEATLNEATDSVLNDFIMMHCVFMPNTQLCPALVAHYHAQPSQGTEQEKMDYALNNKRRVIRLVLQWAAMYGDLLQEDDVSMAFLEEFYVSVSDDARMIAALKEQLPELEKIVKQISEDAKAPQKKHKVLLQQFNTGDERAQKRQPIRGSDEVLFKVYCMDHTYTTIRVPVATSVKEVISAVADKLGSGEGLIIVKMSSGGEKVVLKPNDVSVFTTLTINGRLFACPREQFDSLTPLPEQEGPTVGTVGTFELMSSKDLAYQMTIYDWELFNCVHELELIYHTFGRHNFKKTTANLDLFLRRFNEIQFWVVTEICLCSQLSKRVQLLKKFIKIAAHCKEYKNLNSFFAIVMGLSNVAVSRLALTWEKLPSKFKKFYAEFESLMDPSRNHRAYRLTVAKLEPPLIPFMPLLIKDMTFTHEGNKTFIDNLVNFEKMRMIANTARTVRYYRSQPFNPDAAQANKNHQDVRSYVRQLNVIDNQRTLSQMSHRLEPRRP

Usually GI50 stands for the concentration giving 50% growth inhibition.

The entries are a selection whose mix differs from that of the whole data set. Only a part of the results of these assays is listed, not drawn at random. This is one part of the list. For some of these results: Results with a measured potency or affinity are listed apart. Activity calls are given as the source filed them.

The target of experiment [1] is Guanine nucleotide-binding protein G(s) subunit alpha isoforms short (Homo sapiens) (UniProt P63092). Kind of experiment: qHTS for Agonist of gsp, the Etiologic Mutation Responsible for Fibrous Dysplasia/McCune-Albright Syndrome: qHTS. Type of experiment: functional.
The subject of a further experiment is HepG2. Kind of experiment: qHTS for Inhibitors of TGF-b: Cytotox Counterscreen. [Related pubchem assays (depositor defined):AID588855, AID588860]. Type of experiment: functional. The note with it: Homo sapiens.
For experiment [2], the target named is Mothers against decapentaplegic homolog 3 (Homo sapiens) (UniProt P84022). In words: qHTS for Inhibitors of TGF-b. [Related pubchem assays (depositor defined):AID588856, AID588860]. In kind it is functional. In general terms: In qHTS, concentration-response curves come from the screen itself.
Experiment [3] concerns the target Nuclear factor erythroid 2-related factor 2 (Homo sapiens) (UniProt Q16236). In words: qHTS of Nrf2 Activators. Type of experiment: functional.
The target in experiment [4] is Glycoprotein hormones alpha chain (Homo sapiens) (UniProt P01215). In words: qHTS for Activators of Integrin-Mediated Alleviation for Muscular Dystrophy. Type of experiment: functional.
Experiment [5] addresses Tyrosyl-DNA phosphodiesterase 1 (Homo sapiens) (UniProt Q9NUW8). In words: qHTS for Inhibitors of human tyrosyl-DNA phosphodiesterase 1 (TDP1): qHTS in cells in absence of CPT. In kind it is functional.
Experiment [6] shares this target. Kind of experiment: qHTS for Inhibitors of human tyrosyl-DNA phosphodiesterase 1 (TDP1): qHTS in cells in presence of CPT. Type of experiment: functional.
For experiment [7], the target named is Alpha-synuclein (Homo sapiens) (UniProt P37840). In words: qHTS of alpha-syn Inhibitors. Type of experiment: functional.
Experiment [8] addresses TAR DNA-binding protein 43 (Homo sapiens) (UniProt Q13148). Kind of experiment: qHTS of TDP-43 Inhibitors. In kind it is functional.
Experiment [9] deals with ATP-dependent Clp protease proteolytic subunit (Bacillus subtilis (strain 168)) (UniProt P80244). In words: qHTS Assay for Activators of ClpP. In kind it is functional.
Experiment [10] deals with Guanine nucleotide-binding protein G(s) subunit alpha isoforms short (Homo sapiens) (UniProt P63092). Kind of experiment: qHTS for Antagonists of gsp, the Etiologic Mutation Responsible for Fibrous Dysplasia/McCune-Albright Syndrome: qHTS. Type of experiment: functional.
Experiment [11] deals with Fibroblast growth factor 22 (Homo sapiens) (UniProt Q9HCT0). In words: Small Molecule Inhibitors of FGF22-Mediated Excitatory Synaptogenesis & Epilepsy Measured in Biochemical System Using RT-PCR - 7012-01_Inhibitor_Dose_CherryPick_Activity. In kind it is functional.
Experiment [12] concerns the target Rap guanine nucleotide exchange factor 3 (Homo sapiens) (UniProt O95398). Kind of experiment: qHTS for Antagonist of cAMP-regulated guanine nucleotide exchange factor 3 (EPAC1): primary screen. In kind it is functional.
The target in experiment [13] is Rap guanine nucleotide exchange factor 4 (Homo sapiens) (UniProt Q8WZA2). Kind of experiment: qHTS for Antagonist of cAMP-regulated guanine nucleotide exchange factor 2 (EPAC2): primary screen. In kind it is functional.
In experiment [14] the target is Nuclear factor erythroid 2-related factor 2 (Homo sapiens) (UniProt Q16236).

Turning to `Cc1ccc(OP(=O)(Nc2ccc([N+](=O)[O-])cn2)Oc2ccc(C)cc2)cc1`, the Potency result in experiment [1] is “inactive”.

For `O=[N+]([O-])c1cc([N+](=O)[O-])c(Nc2ccc(Cl)cc2)c([N+](=O)[O-])c1`, the Potency with HepG2 was active: 11.2 µM; in [2] it was active: 14.1 µM; in experiment [3] it was active: 12.6 µM; in experiment [5], active: 1.03 µM; in [6], active: 1.46 µM. Also, the Potency entry in experiment [4], in experiment [7] and in experiment [8] was “inactive” in each case. Consider `C[S+](N)(=O)CCC(N)P(=O)(O)O` (stereo not drawn), for which the GI50 in the experiment with NCI-H23 was inactive: > 100 µM.

For the compound `COP(C)(=O)C(N)Cc1ccccc1` (stereo not drawn), the GI50 in the experiment with NCI-H23 is inactive: > 100 µM. As for `COc1ccc([N+](=O)[O-])c(C[N+](C)(CCCl)CCCl)c1`, the GI50 in the experiment with NCI-H23 and with RXF 393 was inactive: > 100 µM in each case. Consider `Cc1ccc([N+](=O)[O-])c(C[N+](C)(CCCl)CCCl)c1`, for which the GI50 in the experiment on NCI-H23 is inactive: 16.3 µM; in the experiment with RXF 393 it was inactive: 11.4 µM. `O=C(OC1CN2CCC1CC2)c1ccccc1` (stereo not drawn): the Potency entry in experiment [9] is “inactive”. In the case of `O=[As](O)(O)O`, the GI50 in the experiment on NCI-H23 and with RXF 393 was inactive: > 100 µM throughout. Take `O=[N+]([O-])C1([N+](=O)[O-])COCOC1`: the results for the GI50 with NCI-H23 and in the experiment on RXF 393 were inactive: 50.9 µM and inactive: > 100 µM, respectively. `Cc1[nH]c2c(C)c([N+](=O)[O-])c(C)c([N+](=O)[O-])c2c1[N+](=O)[O-]`: the GI50 was inactive: 3.48 µM with NCI-H23 and inactive: 9.59 µM with RXF 393.

As for `Cc1ccc(C(=O)OC2CN3CCC2CC3)cc1` (stereo not drawn), in [1], the Potency entry was “inactive”.

With `Nc1nc2c(ncn2CCN(CCCl)CCCl)c(=O)[nH]1`, the GI50 in the experiment with NCI-H23 and with RXF 393 was inactive: > 100 µM each time. `CCCCCCCCCCCCCNCC(C)O` (stereo not drawn): the GI50 in the experiment with NCI-H23 is inactive: 15.4 µM. Turning to `O[C@H]1[C@@H](O)CC2CCN3Cc4cc5c(cc4[C@H]1C23)OCO5` (stereo partly drawn), the GI50 with NCI-H23 and in the experiment on RXF 393 was inactive: > 100 µM in each case.

As to `O[C@@H]1CCN2CCC[C@H]12`, the GI50 with NCI-H23 and in the experiment with RXF 393 was inactive: > 100 µM throughout. Regarding `COc1ccccc1CNC(=O)COC(=O)C(O)(c1ccccc1)c1ccccc1`, the Potency entry in [1] was “inactive”.

`O=C1CCN2CCCC12` (stereo not drawn): the GI50 in the experiment on NCI-H23 and with RXF 393 was inactive: > 100 µM each time. On to `O=[N+]([O-])C1([N+](=O)[O-])CCCc2nonc21`, for which the GI50 with NCI-H23 was inactive: 20.7 µM; in the experiment with RXF 393 it was inactive: 40.7 µM.

Turning to `O=P1(Nc2nc3ccc(Cl)cc3s2)COc2ccccc2O1` (stereo not drawn), the Potency entry in [1] is “inactive”. As to `CN(C)P(=O)(N(C)C)n1c(Nc2ccccc2)nnc1-c1ccccc1`, in experiment [1], the Potency entry was “inactive”.

With `Cc1ccc(OCC(=O)OC2CN3CCC2CC3)cc1` (stereo not drawn), the Potency result in [1] is “inactive”.

In the case of `O=C1Nc2ccc([N+](=O)[O-])cc2/C1=N/Nc1ccc([N+](=O)[O-])cc1[N+](=O)[O-]`, the GI50 is inactive: 25.9 µM in the experiment on NCI-H23 and inactive: 19.4 µM with RXF 393. For the compound `COc1ccc(C[N+](C)(CCCl)CCCl)c([N+](=O)[O-])c1`, the GI50 in the experiment with NCI-H23 and in the experiment with RXF 393 was inactive: > 100 µM each time.

For the compound `CCCC[S+](N)(=O)CCC(N)P(=O)(O)O` (stereo not drawn), the GI50 with NCI-H23 was inactive: > 100 µM. Turning to `CC(=O)N1C2C3N(C(C)=O)C1C1N(C(C)=O)C(C(N1C(C)=O)N3C(C)=O)N2C(C)=O`, the Potency result in [1] is “inactive”. For `NNc1nc2nonc2nc1NN`, the GI50 is inactive: 44.4 µM in the experiment on NCI-H23 and inactive: > 100 µM in the experiment on RXF 393. On to `Cc1ccc2ccc3ccc4ccccc4c3c2c1.O=C1c2cc([N+](=O)[O-])ccc2-c2c1cc([N+](=O)[O-])cc2[N+](=O)[O-]`, for which the figures for the GI50 in the experiment on NCI-H23 and in the experiment on RXF 393 were inactive: 3.16 µM and inactive: 1.73 µM, respectively.

With `ClCCSc1c2ccccc2nc2ccccc12`, the GI50 with NCI-H23 was inactive: 10.3 µM; with RXF 393 it was inactive: 15.3 µM. For `CN(CCCl)Cc1cc(Cl)c(NC2=NCCN2)c(Cl)c1`, in experiment [10], the Potency entry is “inactive”. On the same count and under the same terms, then `Nc1ccc([As](=O)(O)c2ccc(N)cc2)cc1`, with “inactive”.

`ClCCN(CCCl)c1ccccc1`: the Potency in experiment [5] was active: 1.41 µM; in experiment [6] it was active: 1.26 µM. `CCN(CC)CCCNc1ccccc1[N+](=O)[O-]`: the AbsAC1 in experiment [11] was active: 9.02 µM. Further, in experiment [12], the Potency result was “inactive”.

For `CCOC(=O)C(CC)C1=NC(C)(C)Cc2ccccc21` (stereo not drawn), in experiment [13], the Potency was active: 17.8 µM.

With `O=[N+]([O-])c1ccccc1[N+](=O)[O-]`, the Potency in experiment [14] was active: 19.3 µM.
